Test results: ChEMBL document CHEMBL1155538 (Bioorg Med Chem Lett, 2010)

Protein sequences, listed by entry. Tags and fused reporters are not part of them. Lines headed by an entry give the natural chain unless they say otherwise; changes in a name come on top.
UniProt Q12809: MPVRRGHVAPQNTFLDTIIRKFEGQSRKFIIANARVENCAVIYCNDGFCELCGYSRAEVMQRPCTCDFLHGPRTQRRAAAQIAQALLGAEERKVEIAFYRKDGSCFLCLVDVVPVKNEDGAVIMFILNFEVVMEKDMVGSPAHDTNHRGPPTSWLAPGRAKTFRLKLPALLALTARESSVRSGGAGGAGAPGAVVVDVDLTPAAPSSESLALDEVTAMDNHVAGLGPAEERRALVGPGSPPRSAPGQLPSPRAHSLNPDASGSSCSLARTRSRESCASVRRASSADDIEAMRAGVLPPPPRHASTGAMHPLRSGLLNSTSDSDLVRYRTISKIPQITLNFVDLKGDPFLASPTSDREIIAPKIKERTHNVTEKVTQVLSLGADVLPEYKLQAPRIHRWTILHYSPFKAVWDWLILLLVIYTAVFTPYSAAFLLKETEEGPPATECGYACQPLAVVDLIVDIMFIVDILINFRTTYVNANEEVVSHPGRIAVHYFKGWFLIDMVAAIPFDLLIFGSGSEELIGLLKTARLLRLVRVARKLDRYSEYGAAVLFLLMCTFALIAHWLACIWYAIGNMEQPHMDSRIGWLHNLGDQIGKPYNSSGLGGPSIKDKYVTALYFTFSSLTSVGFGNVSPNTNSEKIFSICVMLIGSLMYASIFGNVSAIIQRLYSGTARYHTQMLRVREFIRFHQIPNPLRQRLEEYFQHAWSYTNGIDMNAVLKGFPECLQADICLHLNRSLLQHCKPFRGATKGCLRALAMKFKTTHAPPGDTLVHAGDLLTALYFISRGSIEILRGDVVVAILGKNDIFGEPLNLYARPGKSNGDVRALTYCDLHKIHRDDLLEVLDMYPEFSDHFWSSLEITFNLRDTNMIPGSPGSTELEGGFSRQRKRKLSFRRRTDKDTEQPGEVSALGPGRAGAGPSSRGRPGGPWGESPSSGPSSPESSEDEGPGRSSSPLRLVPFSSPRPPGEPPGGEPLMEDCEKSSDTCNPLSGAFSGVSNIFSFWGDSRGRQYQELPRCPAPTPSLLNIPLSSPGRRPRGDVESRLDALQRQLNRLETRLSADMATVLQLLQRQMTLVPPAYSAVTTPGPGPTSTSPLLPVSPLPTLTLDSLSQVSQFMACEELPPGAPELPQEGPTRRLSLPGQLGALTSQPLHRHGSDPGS

Key:
[1] = test system: Liver microsomes; experiment: Half life in human liver microsomes; type: ADME, Microsome
[2] = Inhibition of tetrodotoxin-sensitive sodium channel
[3] = target: Voltage-gated inwardly rectifying potassium channel KCNH2 (Homo sapiens, UniProt Q12809); experiment: Displacement of [3H]dofetilide from human ERG

| SMILES | t1/2 [1] [h] | IC50 [2] [µM] | IC50 [3] [µM] |
| --- | --- | --- | --- |
| COc1cccc(F)c1CC(c1ccccc1)N1CCNCC1 (stereo not drawn) | 1.55 | – | – |
| Fc1cccc(OC(F)F)c1CC(c1ccccc1)N1CCNCC1 (stereo not drawn) | – | 1.83 | 10.4 |
